The values that follow come from ChEMBL document CHEMBL1127339, “Tetrapeptide CCK agonists: structure-activity studies on modifications at the N-terminus” (J Med Chem, 1994).

Molecules are shown by their SMILES.

A short description of this assay: Maximum response at 10e-4 M in PI hydrolysis relative to maximal response elicited by CCK-8 in guinea pig. The settings on record: Cavia porcellus.

`Cc1ccccc1NC(=O)NCCCC[C@H](NC(=O)[C@H](Cc1c[nH]c2ccccc12)NC(=O)C(F)(F)F)C(=O)N[C@@H](CC(=O)O)C(=O)N(C)[C@@H](Cc1ccccc1)C(N)=O` returned a Max response of 99%.
